Curated experimental data: vapor pressure values

Vapor pressures (log10 mmHg) refer to near room temperature, 15 to 30 °C; higher is more volatile.
Cells with "n/a" have no entry in this list.
The databases behind each value are named after "via".

compound | name | log VP (log10 mmHg) | via
CCCCC(CC)C(=O)Cl (stereo unspecified) | 2-Ethylhexanoyl chloride | -0.005 | eChemPortal
CC(C)(C)C1CCC(OC(=O)Cl)CC1 (stereo unspecified) | 4-tert-Butylcyclohexyl chloroformate | 0.176 | eChemPortal
CS(=O)(=O)Cl | Methanesulfonyl chloride | 0.421 | PubChem, eChemPortal
O=S(=O)([O-])CCBr.[Na+] | Ethanesulfonic acid, 2-bromo-, sodium salt | -11.99 | eChemPortal
CC1(C(=O)Cl)CCCCC1 | n/a | -0.091 | eChemPortal
CCCCCCCCCCCC(=O)OOC(=O)CCCCCCCCCCC | Peroxide, bis(1-oxododecyl) | -5.921 | eChemPortal
O=C([O-])CCCCCNc1nc(NCCCCCC(=O)[O-])nc(NCCCCCC(=O)[O-])n1.[Na+].[Na+].[Na+] | n/a | -6.534 | eChemPortal
Nc1cc(Cl)ccc1O | 2-Amino-4-chlorophenol | -2.824 | PubChem
C=C(C)C(=O)OCC1CO1 (stereo unspecified) | Glycidyl methacrylate | 0.498 | PubChem, eChemPortal
Cc1cc(C)cc(C(=O)N(NC(=O)c2ccc3c(c2C)CCCO3)C(C)(C)C)c1 | Chromafenozide | -10.52 | OCHEM
Clc1ccc(-c2c(Cl)c(Cl)c(Cl)c(Cl)c2Cl)c(Cl)c1 | 2,2',3,4,4',5,6-Heptachlorobiphenyl | -5.315 | OCHEM
CCC(C)c1cc([N+](=O)[O-])cc([N+](=O)[O-])c1O (stereo unspecified) | Dinoseb | -4.297 | OCHEM, PubChem, eChemPortal
O=C(O)CCCCCCCCCCC(=O)O | Dodecanedioic acid | -9.949 | eChemPortal
Cl.NCC(O)c1ccc(O)cc1 (stereo unspecified) | 2-Amino-1-(4-hydroxyphenyl)ethanol hydrochloride | -4.736 | eChemPortal
Clc1cc(Cl)c2c(c1Cl)Oc1c(Cl)c(Cl)c(Cl)c(Cl)c1O2 | 1,2,3,4,6,7,9-Heptachlorooxanthrene | -8.595 | OCHEM
CCCC(=O)Cl | Butyryl chloride | 1.477 | PubChem, eChemPortal
Clc1ccc(-c2cc(Cl)c(Cl)c(Cl)c2)c(Cl)c1 | 2',3,4,4',5-Pentachlorobiphenyl | -5.165 | OCHEM
CC(C)(C)C(O)C(Oc1ccc(-c2ccccc2)cc1)n1cncn1 (stereo unspecified) | Bitertanol | -11.39 | OCHEM
CCOc1ccc(CC(N)CNCCN)cc1.Cl.Cl (stereo unspecified) | n/a | -8.642 | eChemPortal
Clc1cc(Cl)c(-c2c(Cl)cccc2Cl)c(Cl)c1 | 2,2',4,6,6'-Pentachlorobiphenyl | -3.896 | OCHEM
Clc1ccc(-c2c(Cl)c(Cl)c(Cl)c(Cl)c2Cl)cc1 | 2,3,4,4',5,6-Hexachlorobiphenyl | -5.055 | OCHEM
FC(F)COC(F)(F)C(F)(F)F | (2,2-Difluoroethoxy)pentafluoroethane | 2.576 | ICF
O=C(CCl)c1ccc(F)cc1 | 2-Chloro-4'-fluoroacetophenone | -1.846 | eChemPortal
CCCCOP(=O)(OCCCC)Oc1ccccc1 | Dibutyl phenyl phosphate | -2.155 | OFMPub
CCc1cc(Cc2cc(CC)c(N)c(CC)c2)cc(CC)c1N | 4,4'-Methylenebis(2,6-diethylaniline) | -11.65 | eChemPortal
CC(C)(C)c1cc([N+](=O)[O-])cc([N+](=O)[O-])c1O | Dinoterb | -3.824 | OCHEM
Clc1cccc(-c2ccccc2)c1Cl | 2,3-Dichlorobiphenyl | -2.914 | OCHEM
CC(C)Nc1ccc(Nc2ccccc2)cc1 | N-Isopropyl-N'-phenyl-p-phenylenediamine | -4.28 | eChemPortal
Clc1cc(Cl)c(Cl)c(-c2ccccc2)c1Cl | n/a | -3.943 | OCHEM
c1nc[nH]n1 | 1H-1,2,4-Triazole | -2.782 | eChemPortal
Clc1ccc2ccc(Cl)cc2c1 | 2,7-Dichloronaphthalene | -2.585 | OCHEM
CN(C)C(=S)[S-].[K+] | Potassium dimethyldithiocarbamate | -6.182 | eChemPortal
C1CC2OC2CC1C1CO1 (stereo unspecified) | 4-Vinyl-1-cyclohexene diepoxide | -1 | PubChem
CCOP(=O)(OCC)SCCSCC | Demeton-S | -3.583 | PubChem
O=C(O)CF | 2-Fluoroacetic acid | 0.353 | PubChem
CCc1cnc(C2=NC(C)(C(C)C)C(=O)N2)c(C(=O)O)c1 (stereo unspecified) | Imazethapyr | -7.001 | OCHEM
COc1ccc(CCN)cc1OC | Benzeneethanamine, 3,4-dimethoxy- | -3.894 | eChemPortal
CCOP(OCC)OCC | Triethyl phosphite | 0.487 | PubChem, eChemPortal
CN[C@@H](C)[C@@H](O)c1ccccc1 | Pseudoephedrine | -3.77 | eChemPortal

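The numbers are reported measurements, compiled and curated for the OPERA QSAR suite. A listed value is a point estimate from one report or more. Method, purity and exact conditions of the single measurements are not given. Where a salt, mixture or single isomer is drawn, the source does not say that exactly this form was tested. Some entries may be limits or estimates that an upstream database listed as plain numbers.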

Values as listed in the OPERA 2.9 repository of K. Mansouri.